Target: T1, thermolysin (Bacillus thermoproteolyticus, UniProt P00800)
T1 sequence (P00800 233-548): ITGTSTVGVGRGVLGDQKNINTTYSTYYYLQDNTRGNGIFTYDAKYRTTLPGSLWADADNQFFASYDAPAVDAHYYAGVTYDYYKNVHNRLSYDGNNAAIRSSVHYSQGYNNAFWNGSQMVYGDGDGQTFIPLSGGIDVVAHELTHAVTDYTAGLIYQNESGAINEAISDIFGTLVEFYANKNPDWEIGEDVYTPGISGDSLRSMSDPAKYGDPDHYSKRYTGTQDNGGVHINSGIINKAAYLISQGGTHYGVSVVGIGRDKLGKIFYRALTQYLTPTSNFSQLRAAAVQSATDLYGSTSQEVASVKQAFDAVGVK
Experiment: Proteolytic and thermal stability against thermolysin
Assay type: in vitro ADME
Settings: thermolysin from Bacillus thermoproteolyticus Rokko; 65 °C, up to 12 h

## asteropsin C [ASPC]
  proteolytic and thermal stability against thermolysin: exceptional proteolytic and thermal stability
